{"sequences": {"note": "Protein sequences, listed by entry. Tags and fused reporters are not part of them.", "UniProt Q9JI35, whole entry": "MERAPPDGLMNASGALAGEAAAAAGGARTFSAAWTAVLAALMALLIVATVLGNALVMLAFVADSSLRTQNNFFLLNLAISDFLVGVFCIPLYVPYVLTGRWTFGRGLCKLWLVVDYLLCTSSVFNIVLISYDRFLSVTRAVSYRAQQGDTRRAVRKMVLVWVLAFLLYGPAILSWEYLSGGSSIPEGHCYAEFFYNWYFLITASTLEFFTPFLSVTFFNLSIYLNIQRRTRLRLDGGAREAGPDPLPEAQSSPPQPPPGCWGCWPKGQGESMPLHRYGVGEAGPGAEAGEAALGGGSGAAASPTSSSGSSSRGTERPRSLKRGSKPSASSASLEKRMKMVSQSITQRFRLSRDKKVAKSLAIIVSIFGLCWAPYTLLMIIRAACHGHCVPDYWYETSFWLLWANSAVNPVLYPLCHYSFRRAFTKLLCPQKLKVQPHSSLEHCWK"}, "source": "patent US6133291A", "about": "“N-(imidazolylalkyl)substituted cyclic amines as histamine-H3 agonists or antagonists” (Schering Corporation, priority 1998, dated 2000)", "key": {"H3 receptors [1]": {"biological_target": "T1, H3 receptors (Cavia porcellus, UniProt Q9JI35)", "assay": "H3-Receptor Binding Assay (guinea pig brain membranes, [3H]R-α-methylhistamine or [3H]Nα-methylhistamine)", "settings": "HCl salt, pH 7.5, 30° C., 30 min", "protocol": "(§1) The inventive compounds can readily be evaluated to determine activity at H3 receptors by known methods, including, for example, the guinea pig brain membrane assay and the guinea pig neuronal ileum contraction assay, both of which are described in U.S. Pat. No. 5,352,707.\nThe source of the H3 receptors in this experiment was guinea pig brain. The animals weighed 400-600 g. The brain tissue was homogenized with a solution of 50 mM Tris, pH 7.5. The final concentration of tissue in the homogenization buffer was 10% w/v. The homogenates were centrifuged at 1,000× g for 10 min. in order to remove clumps of tissue and debris. The resulting supernatants were then centrifuged at 50,000× g for 20 min. in order to sediment the membranes, which were next washed three times in homogenization buffer (50,000× g for 20 min. each). The membranes were frozen and stored at -70° C. until needed.\nAll compounds to be tested were dissolved in DMSO and then diluted into the binding buffer (50 mM Tris, pH 7.5) such that the final traction was 2 μg/ml with 0.1% DMSO. Membranes were then added (400 μg of protein) to the reaction tubes. […] Bound ligand was separated from unbound ligand by filtration, and the amount of radioactive ligand bound to the membranes was quantitated by liquid scintillation spectrometry. […]"}, "H3 receptors [2]": {"biological_target": "T1, H3 receptors", "assay": "pA2 at H3 receptor (guinea pig neuronal ileum contraction assay)", "settings": "HCl salt; pA2=-logEC50 as defined by J. Hey", "excerpt": "as §1\npA2=-logEC50, as defined by J. Hey, Eur. J. Pharmacol., (1995), Vol. 294, 329."}}, "note": "This is a selection: effects in other tests are not listed, and their absence says nothing."}
{"smiles": "FC(F)(F)Oc1cccc(NC2CCN(CCCCc3c[nH]cn3)CC2)c1", "values": [{"measurement": "Ki", "setting": "H3 receptors [1]", "value": 7, "unit": "nM"}, {"measurement": "pA2", "setting": "H3 receptors [2]", "value": 8.1}]}
